Rows were chosen to be rich in hits. Some 16% of all compounds tested hit in one or more screens of this group.
uPA generation: inhibitors of cell surface uPA generation. cell surface uPA generation assay, qHTS. Potency, µM (titrated, usually from 38.3 µM), for the others: top-dose activity change, negative = inhibition, hits mostly inhibitors. 0.31% of 330,000 active; active means well fitted inhibition curve with a large enough effect; inconclusive means small, poorly fitted or top-dose-only effect; inactive means no such curve, though single readings can be large or run the other way; tested in mouse RAW 264.7 cells; further: potency means the concentration at half of the fitted maximal effect; on the % scale 0 is the no-effect control and ±100 the full control effect; nearly all actives have a fitted effect of over 55% in size
miR-21 reporter: raises the signal of a miR-21 reporter. HeLa miR-21 FLuc reporter, luciferase, 48 h. 340,000 tested, under 10 active. Potency, µM (highest dose often 38.3 µM), for the others: at the highest dose reporter change, positive = more light; active = well fitted rising curve with a large enough effect; inconclusive = small, poorly fitted or top-dose-only effect; inactive = no such curve, though single readings can be large or run the other way;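 note: % of control where 0% means no effect; miR-21 action dims this reporter so a rising signal means less miR-21 action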
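Using DMEM plus 10% FBS, HeLa miR-21-FLuc cells are incubated with test compounds (final up to about 40uM) for 48 hours; firefly luciferase signal is then imaged following reagent-mediated lysis.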
TDP1 block: blocks human tyrosyl-DNA phosphodiesterase 1; Q9NUW8; recombinant TDP1, AlphaScreen DNA substrate cleavage; Potency, µM (series often up to 130 µM), for inactives: at the top dose activity change, negative = inhibition, actives largely listed as inhibitors; 0.28% of 350,000 active; AID 485290; further: potency means the concentration at half of the fitted maximal effect; on the % scale 0 is the no-effect control and ±100 the full control effect; nearly all actives have a fitted effect of over 40% in size
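Here, a 5' biotin and 3' phosphotyrosine-FITC DNA oligonucleotide reports Tdp1 activity: intact substrate bridges AlphaScreen beads, while cleavage leaves a 3' phosphate and drops signal. All incubations at room temperature.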
DT40 TDP1 CPT: DT40-hTDP1 cell growth loss with CPT. chicken DT40 Tdp1-/-;hTDP1 cells + 20 nM CPT, ATP luminescence, 48 h. Potency, µM (highest dose often 46.2 µM), for inactives: at the top dose activity change, negative = growth inhibition, most hits filed as inhibitors. 12% of 420,000 active. AID 686979; further: potency means the concentration at half of the fitted maximal effect; on the % scale 0 is the no-effect control and ±100 the full control effect; nearly all actives have a fitted effect of over 55% in size
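Chicken DT40 Tdp1-/- cells complemented with human TDP1, 400 cells/well, exposed to compounds plus 20 nM camptothecin for at least 48 h at 37 C; viability read as ATP content by CellTiter-Glo luminescence.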
TDP1 cell noCPT: qHTS for Inhibitors of human tyrosyl-DNA phosphodiesterase 1 (TDP1): qHTS in cells in absence of CPT; 15% of 420,000 active; Potency, µM (titrated, usually from 46.2 µM), for inactives: at the highest dose activity change, negative = growth inhibition, hits mostly inhibitors; DT40 Tdp1-/- hTDP1 cells, no CPT, ATP luminescence, 48 h; further: potency means the concentration at half of the fitted maximal effect; on the % scale 0 is the no-effect control and ±100 the full control effect; nearly all actives have a fitted effect of over 55% in size
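Growth of hTDP1-complemented DT40 Tdp1-knockout cells is measured by ATP luminescence after at least 48 hr compound exposure at 37 °C, with DMSO substituting for the 20 nM CPT used in the parallel screen.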
* = called active by the depositor; ? = inconclusive; nt = not tested or not shown; [ ] = another dose, or the depositor's remark. Unless noted, the call rests on the fitted dose curve; in most records, active means well fitted curve in the direction sought with a large enough effect; inconclusive means small, poorly fitted or top-dose-only effect, or another doubt; inactive means no such curve, though single readings can be large; an effect the other way counts as inactive or inconclusive.

Short forms: A = uPA generation; B = miR-21 reporter; C = TDP1 block; D = DT40 TDP1 CPT; E = TDP1 cell noCPT
O=C(Nc1ccc(F)c(Cl)c1)c1cc(C2CCCCN2C(=O)c2cccs2)on1 (centres undefined)
  A: nt; B: nt; C: nt; D: 16µM*; E: 7.3µM*
O=C(Nc1ccc(S(=O)(=O)NCC2CCCO2)cc1)C1CC(=O)N(c2ccccc2)C1 (centres undefined)
  A: 3%; B: -1%; C: nt; D: -21%; E: -11%
CNc1snc(C)c1C(=O)OCC(=O)NCc1ccccc1OC
  A: -2%; B: nt; C: 2%; D: ?; E: ?
O=C(Nc1ccccc1Cl)c1cc(C2CCCCN2C(=O)c2cccs2)on1 (centres undefined)
  A: nt; B: nt; C: nt; D: 29µM*; E: ?
N#Cc1ccc(C(=O)N2CCCCC2c2cc(C(=O)Nc3ccccc3Cl)no2)cc1 (centres undefined)
  A: nt; B: nt; C: nt; D: -26%; E: ?
O=C(NCc1ccc(Cl)c(Cl)c1)c1cc(C2CCCCN2C(=O)C2CCCCC2)on1 (centres undefined)
  A: nt; B: nt; C: nt; D: 16µM*; E: 18µM*
Cc1cc(C)cc(Nc2nnc(-n3nc(C)cc3C)c3ccccc23)c1
  A: nt; B: -5%; C: -2%; D: ?; E: ?
CC(=O)c1cccc(S(=O)(=O)N(Cc2cc3cc4c(cc3[nH]c2=O)OCCO4)CC2CCCO2)c1 (centres undefined)
  A: 4%; B: -7%; C: 0%; D: ?; E: ?
Cc1ccc(S(=O)(=O)N(CCCN2CCCC2=O)Cc2cc3c(C)ccc(C)c3[nH]c2=O)cc1
  A: -1%; B: -1%; C: 10%; D: 18µM*; E: 23µM*
Cc1ccc(C)c2[nH]c(=O)c(CN(CC3CCCO3)S(=O)(=O)c3ccc4c(c3)OCCO4)cc12 (centres undefined)
  A: nt; B: 0%; C: 3%; D: ?; E: 16µM*
Cc1cc(C)c2[nH]c(=O)c(CN(CC3CCCO3)S(=O)(=O)c3ccc4c(c3)OCCO4)cc2c1 (centres undefined)
  A: 5%; B: -5%; C: 5%; D: ?; E: 23µM*
O=c1c2ccccc2nc(/C=C/c2c[nH]c3ccccc23)n1CCO
  A: nt; B: -30%; C: 8%; D: 4.6µM*; E: 6.5µM*
O=c1c2ccccc2nc(/C=C/c2cc(Br)ccc2O)n1CCO
  A: ?; B: nt; C: nt; D: ?; E: 15µM*
CCn1c(/C=C/c2ccccc2)nc2ccccc2c1=O
  A: ?; B: -1%; C: 6%; D: ?; E: ?
CCSc1ncc(Cl)c(C(=O)Nc2sc3c(c2C(=O)NC)CCCC3)n1
  A: nt; B: -1%; C: 7%; D: ?; E: ?
CCc1nnc(NC(=O)c2cc(S(=O)(=O)N3CCN(c4ccccc4)CC3)ccc2Cl)s1
  A: 1%; B: -1%; C: 5%; D: -27%; E: -7%
COc1ccc(S(=O)(=O)N2CCOCC2)cc1NC(=O)[C@@H]1CCCN1C(=O)c1cccs1
  A: -2%; B: -1%; C: 3%; D: -2%; E: -14%
Cc1ccc(S(=O)(=O)N2CCCCC2)cc1NC(=O)c1cc2ccccc2o1
  A: 16%; B: nt; C: 0%; D: ?; E: ?
CCN1CCN(S(=O)(=O)c2ccc(Cl)c(C(=O)Nc3ccccc3N3CCCCC3)c2)CC1
  A: 0%; B: nt; C: 4%; D: 16µM*; E: 26µM*
CCN1CCN(c2ccc(S(=O)(=O)N3CCCCC3)cc2NC(=O)c2cc3ccccc3o2)CC1
  A: -5%; B: nt; C: 4%; D: ?; E: 16µM*
COc1ccc(S(=O)(=O)N2CCOCC2)cc1NC(=O)C1CCCN1C(=O)c1cccs1 (centres undefined)
  A: -9%; B: nt; C: 0%[56.1 µM]; D: 0.26µM*; E: ?
CCN1CCN(S(=O)(=O)c2ccc(Cl)c(C(=O)Nc3nnc(CC(C)C)s3)c2)CC1
  A: 3%; B: 9%; C: 3%; D: 23µM*; E: ?
COc1ccc(S(=O)(=O)N2CCOCC2)cc1NC(=O)c1cc2ccccc2o1
  A: -7%; B: nt; C: 0%; D: ?; E: 13µM*
CCOC(=O)c1ccccc1NC(=O)c1cc2ccccc2o1
  A: 10%; B: -4%; C: nt; D: -24%; E: ?
CCN1CCN(c2c(Cl)cccc2NC(=O)c2cc3ccccc3o2)CC1
  A: -7%; B: nt; C: nt; D: ?; E: 18µM*
CCOCc1nc2nc(Cl)c(Cl)nc2[nH]1
  A: nt; B: nt; C: nt; D: -20%; E: -28%
COc1ccc(S(=O)(=O)N2c3ccccc3OCC2CC(=O)O)cc1 (centres undefined)
  A: -2%; B: 19%; C: nt; D: ?; E: 29µM*
COc1ccc(S(=O)(=O)N2CCOc3ccccc32)cc1
  A: ?; B: 24%; C: nt; D: 5.2µM*; E: 3.7µM*
COc1ccc(S(=O)(=O)N2CC(C(=O)O)Oc3ccccc32)cc1 (centres undefined)
  A: 5%; B: -3%; C: nt; D: -4%; E: -19%
COc1ccc(S(=O)(=O)N2c3ccccc3OCC2c2ccccc2)cc1 (centres undefined)
  A: -11%; B: 27%; C: -2%; D: 18µM*; E: 23µM*

An excerpt from above, limited to miR-21 reporter and TDP1 cell noCPT:
compound,miR-21 reporter,TDP1 cell noCPT
COc1ccc(S(=O)(=O)N2CCOc3ccccc32)cc1,24%,3.7µM*
CCc1nnc(NC(=O)c2cc(S(=O)(=O)N3CCN(c4ccccc4)CC3)ccc2Cl)s1,-1%,-7%
COc1ccc(S(=O)(=O)N2CC(C(=O)O)Oc3ccccc32)cc1 (centres undefined),-3%,-19%
COc1ccc(S(=O)(=O)N2c3ccccc3OCC2c2ccccc2)cc1 (centres undefined),27%,23µM*
COc1ccc(S(=O)(=O)N2CCOCC2)cc1NC(=O)c1cc2ccccc2o1,nt,13µM*

One compound at a time, from the list above.
COc1ccc(S(=O)(=O)N2CCOCC2)cc1NC(=O)C1CCCN1C(=O)c1cccs1 (centres undefined) across the screens: uPA generation = -9%; miR-21 reporter = nt; TDP1 block = 0%[56.1 µM]; DT40 TDP1 CPT = 0.26µM*; TDP1 cell noCPT = ?
COc1ccc(S(=O)(=O)N2c3ccccc3OCC2c2ccccc2)cc1 (centres undefined) across the screens: uPA generation = -11%; miR-21 reporter = 27%; TDP1 block = -2%; DT40 TDP1 CPT = 18µM*; TDP1 cell noCPT = 23µM*

(list continues)
mol,uPA generation,miR-21 reporter,TDP1 block,DT40 TDP1 CPT,TDP1 cell noCPT
COc1ccc(S(=O)(=O)N2c3ccccc3OCC2C)cc1 (centres undefined),-9%,25%,3%,0.58µM*,0.82µM*
COC(=O)c1ccccc1NC(=O)c1ccc(CN2CC(=O)N3CCCCC3C2=O)cc1 (centres undefined),nt,0%,6%,?,?
Cn1c(SCC(=O)N2CCN(C(=O)c3ccco3)CC2)nnc1-c1ccc(NS(C)(=O)=O)cc1,-6%,-1%,0%,-18%,-2%
Cc1ccc(CNc2nc(-c3ccco3)nn2C(=O)c2ccccc2[N+](=O)[O-])cc1,nt,6%,6%,?,18µM*
CC(C)c1ccc(CNc2nc(-c3ccco3)nn2S(=O)(=O)c2ccccc2)cc1,nt,-44%,1%,23µM*,?
Cc1ccc(S(=O)(=O)n2nc(-c3ccco3)nc2NCc2ccc(N(C)C)cc2)cc1,nt,-44%,10%,?,23µM*
COc1ccc(S(=O)(=O)n2nc(-c3ccco3)nc2NCc2ccc(N(C)C)cc2)cc1,nt,-45%,7%,?,?
Cc1ccccc1OCC(=O)NC(=S)Nc1ccc2c3c(cccc13)CC2,-1%,1%,0%,18µM*,18µM*
CC(C)(O)CCCC(C)(O)c1ccc(C(=O)O)cc1O (centres undefined),9%,-2%,nt,6%,11%
CN(C)c1ccc(N=Cc2nc(-c3ccccc3)oc2O)cc1,-4%,-15%,8%,-7%,-1%
CN(C)c1ccc(N=Cc2ccnc3ccccc23)cc1,nt,nt,nt,10µM*,11µM*
ON=Cc1ccnc2ccccc12,nt,nt,nt,-23%,?
CN(C)c1ccc(N=Cc2cccc3ccccc23)cc1,nt,nt,nt,4.5µM*,4µM*
O=C(NC1CCCC1)C(c1ccc(F)cc1)N(Cc1ccc(F)cc1)C(=O)CCl (centres undefined),3%,-2%,3%,3.3µM*,4.6µM*
O=C(NC1CCCC1)C(c1cccnc1)N(Cc1ccc(F)cc1)C(=O)c1csnn1 (centres undefined),4%,-2%,3%[0.0935 µM],6%,0%

Bioassay records from PubChem.
